Literature values as cited in patent publication US20070043110A1, “Nontoxic potentiation sensitization of ovarian cancer therapy by supplementary treatment with vitamins” (Summa Health System, priority 2001, published 2007).

Experiments:
[1] = test system: nasopharyngeal carcinoma cells; details: with doxorubicin, 5-FU, and vinblastine; cited from earlier work
[2] = test system: MCF-7 breast cancer cells; details: with doxorubicin or mitomycin, VK3 pretreatment; cited from earlier work
[3] = test system: human oral epidermoid carcinoma (KB) cell cultures; details: cited from earlier work

In the case of `CC1=CC(=O)c2ccccc2C1=O` [Vitamin K3, 2-Methyl-1,4-Naphthoquinone], the “interaction with chemotherapeutic agents” value [1] is listed as “Synergistic activity”, the “interaction with chemotherapeutic agents” value [2] is listed as “Synergistic activity” and the “interaction with chemotherapeutic agents” value ([3]; with actinomycin D, cytarabine, doxorubicin, hydroxyurea, mercaptopurine, mitomycin C, mitoxantrone, thiotepa, vincristine and VP-16) is listed as “additive effect”. For the same compound, the “interaction with chemotherapeutic agents” value ([3]; with bleomycin, cisplatin, dicarbazine and 5-fluorouracil) was “synergism”.

Where two headings read alike, the source gives them in different places.
